The results in this text go back to US12440495B2, “Combination therapy for treatment of myeloproliferative neoplasms” (Incyte Corporation, priority 2020, dated 2025).

The experiment has as its system MPLW515L expressing bone marrow. As to the kind of experiment: MPLW515L mouse model of MPN. Particulars: ruxolitinib 60 mg/kg BID, Compound 1 10 mg/kg QD, combination.

As to `N#CC[C@H](C1CCCC1)n1cc(-c2ncnc3[nH]ccc23)cn1` [ruxolitinib, (3R)-3-cyclopentyl-3-[4-(7H-pyrrolo[2,3-d]pyrimidin-4-yl)-1H-pyrazol-1-yl]propanenitrile, reference compound], the “Fa (fraction affected, change vs vehicle), MPL SPL” value turned out to be 0.5858 and the “MPL SPL (sizes of the spleens)” value came to 0.3367 grams.
